Data as given in patent US11845726B2.

Experiment: Mouse pharmacokinetic (PK) evaluation of drug metabolism to psilocin

CN(C)CCc1c[nH]c2cccc(OC(=O)OCc3ccccc3)c12 [B(II)]
administered compound in plasma (1 mg/kg oral): neither B(II) nor E(VI) were detected in plasma
psilocin levels, B(II) compared with E(VI) (oral dosing): higher psilocin levels in B(II)-treated mice
stability in plasma (plasma): comparatively stable in plasma
